Data on one molecule can be found in patent US20080241129A1, “ADIPOCYTE SECRETED PROTEIN CCDC80 IS A POTENT STIMULATOR OF BONE FORMATION” (Wyeth, priority 2007, published 2008).

Assay [1] deals with BMP-response element (BMP-dependent transcriptional activity) in C2C12 cells. As to the kind of experiment: BMP-response element luciferase reporter in C2C12 cells. Format: cell-based. Conditions: BMP-2 50 ng/ml, 48 hrs. From the text:
(§1) As described above, BMP-2 is a well-known osteogenic factor and is used clinically as a bone-inductive agent. It has also been shown that osteogenic effects of strains, cholesterol-lowering drugs, involve up-regulation of endogenous BMP-2 (Chowdhury J R et al., Science 254:1802-05 (1991)). Thus, Applicants next examined if stimulatory effects of Ccdc80 on bone formation might involve actions/activities of BMP-2. To do this, C2C12 cells were transiently transfected with plasmids containing either a BMP-response element fused to a luciferase reporter gene (to monitor BMP-dependent transcriptional activity) or a response element containing binding sites for the TCF/LEF transcription factors fused to a luciferase reporter gene (to monitor β-catenin-dependent transcriptional activity). After transfection, cells were infected with an adenovirus encoding either GFP or human Ccdc80 for 16 hrs, after which they were allowed to differentiate in low-mitogenic condition (reduction of serum from 10% to 1% FBS) in the absence or presence of BMP-2 (50 ng/ml) for 48 hrs. BMP- and β-catenin-mediated transcription were evaluated by measuring luciferase activity, and results were expressed relative to β-galactosidase (control).
In general terms: Reporter assays use an easily measured gene product as a stand-in for the process of interest.

Assay [2] has as its system β-catenin-mediated transcriptional activity in C2C12 cells. Briefly: TCF/LEF luciferase reporter (β-catenin-dependent transcription) in C2C12 cells. Format: cell-based. Conditions: BMP-2, C2C12 cells.
Text: as §1
Applicants then determined the effect of Ccdc80 on β-catenin-mediated transcription, a known component of bone remodeling in a large number of experimental paradigms. […]

B1: BMP-2: bone morphogenetic protein-2, well-known osteogenic factor used clinically as a bone-inductive agent (protein, UniProt P12643 283-396, looked up)
Bone morphogenetic protein 2: QAKHKQRKRLKSSCKRHPLYVDFSDVGWNDWIVAPPGYHAFYCHGECPFPLADHLNSTNHAIVQTLVNSVNSKIPKACCVPTELSAISMLYLDENEKVVLKNYQDMVVEGCGCR
Consider B1, for which the “transcriptional activity of the BMP-response element” value in assay [1] was “dramatically enhanced”. Further, the β-catenin-mediated transcriptional activity result in assay [2] is “blunts”.
